Target: Prostaglandin E2 receptor EP2 subtype (Homo sapiens, UniProt P43116)
Test: Antagonist activity at human EP2 receptor expressed in CHO cells assessed as increase in cAMP level incubated for 30 mins followed by agonist addition measured after 90 mins
Assay type: functional, cell-based

Amino acid sequences for entries named in this document (tags omitted). A change or cut given only in a name is not applied to a line headed by its entry.
UniProt P43116: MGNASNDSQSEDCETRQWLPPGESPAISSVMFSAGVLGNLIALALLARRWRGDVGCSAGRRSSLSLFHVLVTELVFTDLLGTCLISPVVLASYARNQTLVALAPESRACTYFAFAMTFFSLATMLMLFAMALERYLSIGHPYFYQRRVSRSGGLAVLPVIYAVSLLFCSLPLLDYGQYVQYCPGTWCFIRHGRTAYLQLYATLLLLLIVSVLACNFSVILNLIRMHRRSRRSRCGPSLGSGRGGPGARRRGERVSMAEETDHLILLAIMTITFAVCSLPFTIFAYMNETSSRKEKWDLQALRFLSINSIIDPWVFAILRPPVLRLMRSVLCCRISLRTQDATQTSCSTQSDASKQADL

EC50: 13.8 nM
SMILES: CCCCC[C@H](O)/C=C/[C@H]1[C@H](O)CC(=O)[C@@H]1C/C=C\CCCC(=O)O [DINOPROSTONE]
